Test results taken from patent publication US11065319B2, “Methods for diagnosing and reducing incidences of cardiac allograft rejection” (3DT Holdings, LLC, priority 2014, dated 2021).

Tested on: IgM in human heart biopsies
Assay: Displacement (elution) of IgM from human heart transplant biopsies
Format: binding
Conditions: for vascular IgM in biopsy after incubation (immunohistochemistry): displacement experiments
Method: This IgM biopsy removal was also confirmed immunohistochemically (FIG. 12).
Serum IgM anti-PC NAbs was evaluated using ELISA (ADI, San Antonio, Tex.). To confirm that IgM within the heart microvessels is directed to PC, the antibodies were eluted from the heart tissue samples and measured the eluates in specific ELISAs (ADI, San Antonio, Tex.). The presence of increased inflammation was determined immunohistochemically with antibodies to CRP and ICAM-1. Reduced thrombosis was identified using antibodies to fibrin, antithrombin, and tissue plasminogen activator. MΦ phenotypes were also assessed with 4-color immunohistochemistry and M1 and M2 MΦs characterized with antibodies to TNF/IL-1/CCR2/IL-12/23 and CD163/IL-10/CD206, respectively.
IgM from heart biopsies was removed using PC (50 mM), CRP (2.58 mg/ml) or albumin (1 mg/ml) concentrations proven to be effective in preliminary studies (see FIG. 11). To verify if the IgM removed from the heart biopsies is PC-specific, ELISA was performed.
One hundred and seventy-two (172) adult heart transplant patients (having a number of serial biopsies per patient in first three months post-transplant) were followed for several years and subsequently analyzed. CAV was diagnosed with serial angiographies for each patient. The percentage of microvascular IgM was quantified with double staining (IgM/CD31 or Ulex europaeus lectin). IgM and IgM anti-phosphorylcholine (PC) from biopsy eluates were determined with immunoblotting and enzyme-linked immunosorbent assays (ELISAs). Statistical analyses used univariate logistic regression, multivariate stepwise models, and Kaplan-Meier curves for different tertile groups.

“human albumin: control protein in IgM displacement experiments” was tested, and the “removal of IgM from heart biopsies by incubation” value (PC 50 mM, CRP 2.58 mg/ml, albumin 1 mg/ml) was “not”, the “vascular IgM in biopsy after incubation (immunohistochemistry)” value was “presence of vascular IgM” and the “vascular IgM in biopsy after incubation (immunohistochemistry)” value (listed as albumin) was “not”. For the same substance, the “IgM anti-PC in biopsy eluates (ELISA)” value (eluates after incubation of biopsies) was 0.0±0.0 U/ml and the “IgM in western blots of biopsy eluates” value (following incubation of biopsies) was “not”.
